This note sets out measurements from PubChem BioAssay AID1964107 (National Center for Advancing Translational Sciences (NCATS), 2024).

Structures are written as SMILES. Only a part is listed here, and it is no random draw. Records with an inconclusive call do not appear. Calls of active or inactive are those of the source. The call rests on the fitted dose curve.
On the % scale 0 is the no-effect control and ±100 the full control effect.

The experiment has as its target Polyprotein P1234 (Chikungunya virus (strain S27-African prototype)) (UniProt Q8JUX6). In words: Primary qHTS for inhibitors of NSP2Pro chikungunya virus (CHIKV). Further: nearly all actives have a fitted effect of over 60% in size. As to conditions: FRET peptide cleavage, fluorescence 1 h; at 24.9 µM (top of the series). A general note: qHTS replaces the single test concentration by a dilution series.
Regarding `CN(CCCl)CCCl`, the activity change, negative = inhibition was inactive: -15.1%.
